Test results as given in patent US20230092679A1, “MCL-1 INHIBITOR ANTIBODY-DRUG CONJUGATES AND METHODS OF USE” (NOVARTIS AG, priority 2019, published 2023).

System: NCI-H929 multiple myeloma cell line
Experiment: In vitro cytotoxicity, Microculture Tetrazolium Assay (MTT)
Assay type: cell-based
Details: read-out: IC50 (M) MTT H929; NCI-H929, 48 hours

## COc1ccc(-c2nccc(COc3ccccc3C[C@@H](Oc3ncnc4sc(-c5ccc(F)cc5)c(-c5ccc(OCCN6CCN(C)CC6)c(Cl)c5C)c34)C(=O)O)n2)cc1
  IC50: 7e-09 M
